Results reported in US20180118786A1 (published 2018).

Biological target: T1, human β-FXIIa (HFXIIAB; Molecular Innovations) (human, UniProt P00748 354-362; P00748 373-615)
T1 chain 1: NGPLSCGQR
T1 chain 2: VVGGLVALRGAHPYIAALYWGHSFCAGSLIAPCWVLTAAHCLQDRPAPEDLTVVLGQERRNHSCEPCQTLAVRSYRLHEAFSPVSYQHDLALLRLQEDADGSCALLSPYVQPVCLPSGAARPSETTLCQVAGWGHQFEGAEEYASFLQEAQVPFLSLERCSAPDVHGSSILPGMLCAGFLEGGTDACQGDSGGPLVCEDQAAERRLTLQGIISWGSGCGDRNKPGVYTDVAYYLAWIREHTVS
Test: enzyme inhibition

For RCFRLPCAQLSCA [FXII611], the Ki was 32 nM.
